# Membrane permeability of cyclic peptides

Source: CycPeptMPDB (Li et al. 2023), which took these values from Townsend et al. 2020, doi:10.26434/chemrxiv.13335941.v1.

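The data file gives no further conditions (lipid, pH, time, direction or concentration), and values from different papers need not be comparable. The list need not hold all peptides of the study. Peptides that the database sets to -10, its floor, are left out.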

PAMPA is the parallel artificial membrane permeability assay, which has no cells and reads passive diffusion.
Values are log10 P with P in cm/s, so -5 is more permeable than -7.

structure (SMILES),PAMPA (log10 cm/s)
CC(C)C[C@@H]1NC(=O)[C@@H](CC(C)C)NC(=O)[C@@H](C)N(C)C(=O)[C@@H]2CCCN2C(=O)[C@H](Cc2ccccc2)NC(=O)CN(Cc2ccccc2)C(=O)[C@H]2CCCN2C1=O,-5.66
CC(C)C[C@@H]1NC(=O)C[C@H](Cc2ccccc2)NC(=O)[C@@H]2CCCN2C(=O)[C@H](Cc2ccccc2)NC(=O)[C@@H](CC(C)C)N(C)C(=O)[C@H]2CCCN2C(=O)CN(Cc2ccccc2)C1=O,-5.46
CCCN1CC(=O)N(C)[C@H](CC(C)C)C(=O)N(C)[C@H](CC(C)C)C(=O)N2CCC[C@H]2C(=O)N[C@H](CC(C)C)C(=O)N[C@@H](Cc2ccccc2)C1=O,-4.80
CCCN1CC(=O)N[C@H](CC(C)C)C(=O)N(C)[C@H](CC(C)C)C(=O)N2CCC[C@H]2C(=O)N[C@@H](CC(C)C)C(=O)N[C@@H](Cc2ccccc2)C(=O)N2CCC[C@H]2C1=O,-5.58
CC(C)C[C@@H]1C(=O)N2CCC[C@@H]2C(=O)N(C)[C@@H](CC(C)C)C(=O)N[C@@H](Cc2ccccc2)C(=O)N2CCC[C@@H]2C(=O)N[C@H](C)C(=O)N(C)[C@@H](CC(C)C)C(=O)N1C,-5.74
CCCN1CC(=O)N[C@H](CC(C)C)C(=O)N[C@@H](CC(C)C)C(=O)N2CCC[C@H]2C(=O)N(C)[C@@H](CC(C)C)C(=O)N[C@@H](Cc2ccccc2)C(=O)N2CCC[C@H]2C1=O,-5.52
CC(C)C[C@@H]1C(=O)N2CCC[C@@H]2C(=O)N(C)[C@@H](CC(C)C)C(=O)N[C@@H](Cc2ccccc2)C(=O)N2CCC[C@H]2C(=O)N[C@@H](Cc2ccccc2)CC(=O)N[C@H](CC(C)C)C(=O)N1C,-5.31
CCCN1CC(=O)N(C)[C@H](CC(C)C)C(=O)N(C)[C@@H](CC(C)C)C(=O)N2CCC[C@@H]2C(=O)N[C@@H](CC(C)C)C(=O)N[C@@H](Cc2ccccc2)C1=O,-5.01
CC(C)C[C@@H]1NC(=O)[C@H](C)NC(=O)[C@H](Cc2ccccc2)NC(=O)[C@@H](CC(C)C)N(C)C(=O)[C@@H]2CCCN2C(=O)CN(Cc2ccccc2)C1=O,-6.01
CC(C)C[C@H]1NC(=O)[C@@H](C)N(C)C(=O)[C@@H]2CCCN2C(=O)[C@H](Cc2ccccc2)NC(=O)CN(Cc2ccccc2)C(=O)[C@@H]2CCCN2C(=O)[C@@H](CC(C)C)NC1=O,-5.94
CC(C)C[C@@H]1C(=O)N[C@@H](Cc2ccccc2)C(=O)N2CCC[C@@H]2C(=O)N[C@@H](C)C(=O)N(C)[C@@H](CC(C)C)C(=O)N(Cc2ccccc2)CC(=O)N2CCC[C@@H]2C(=O)N1C,-6.43
CC(C)C[C@H]1NC(=O)[C@H]2CCCN2C(=O)C[C@H](Cc2ccccc2)NC(=O)[C@H](CC(C)C)N(C)C(=O)[C@H](C)NC(=O)[C@H](Cc2ccccc2)NC1=O,-6.31
CC(C)C[C@H]1C(=O)N(Cc2ccccc2)CC(=O)N2CCC[C@H]2C(=O)N(C)[C@@H](CC(C)C)C(=O)N[C@@H](Cc2ccccc2)C(=O)N2CCC[C@@H]2C(=O)N[C@@H](Cc2ccccc2)CC(=O)N1C,-5.43
CC(C)C[C@@H]1NC(=O)[C@@H](C)N(C)C(=O)[C@@H]2CCCN2C(=O)[C@H](Cc2ccccc2)NC(=O)[C@@H](CC(C)C)NC(=O)[C@H]2CCCN2C(=O)[C@H](CC(C)C)N(C)C1=O,-5.86
CC(C)C[C@@H]1C(=O)N[C@@H](Cc2ccccc2)C(=O)N2CCC[C@H]2C(=O)N(C)[C@@H](C)C(=O)N(C)[C@@H](CC(C)C)C(=O)N(Cc2ccccc2)CC(=O)N2CCC[C@H]2C(=O)N1C,-5.98
CC(C)C[C@@H]1NC(=O)[C@@H](C)NC(=O)[C@H](Cc2ccccc2)NC(=O)[C@H](CC(C)C)NC(=O)[C@@H]2CCCN2C(=O)C[C@H](Cc2ccccc2)NC1=O,-6.61
CC(C)C[C@@H]1NC(=O)[C@@H]2CCCN2C(=O)[C@H](CC(C)C)NC(=O)[C@H](CC(C)C)N(C)C(=O)[C@@H](C)N(C)C(=O)[C@H]2CCCN2C(=O)[C@H](Cc2ccccc2)NC1=O,-6.73
CC(C)C[C@@H]1NC(=O)[C@@H](CC(C)C)NC(=O)C[C@H](Cc2ccccc2)NC(=O)[C@@H]2CCCN2C(=O)[C@H](Cc2ccccc2)NC(=O)[C@@H](CC(C)C)NC(=O)[C@H]2CCCN2C1=O,-5.50
CC(C)C[C@H]1C(=O)N[C@@H](Cc2ccccc2)C(=O)N2CCC[C@@H]2C(=O)N(C)[C@@H](C)C(=O)N(C)[C@@H](CC(C)C)C(=O)N[C@@H](Cc2ccccc2)CC(=O)N2CCC[C@@H]2C(=O)N1C,-5.31
CC(C)C[C@@H]1C(=O)N[C@H](CC(C)C)C(=O)N2CCC[C@@H]2C(=O)N(C)[C@H](CC(C)C)C(=O)N[C@@H](Cc2ccccc2)C(=O)N2CCC[C@H]2C(=O)N(C)[C@H](C)C(=O)N1C,-5.03
CC(C)C[C@@H]1C(=O)N(C)[C@@H](CC(C)C)C(=O)N2CCC[C@@H]2C(=O)N(C)[C@H](CC(C)C)C(=O)N[C@@H](Cc2ccccc2)C(=O)N2CCC[C@@H]2C(=O)N(C)[C@H](C)C(=O)N1C,-5.57
CC(C)C[C@@H]1C(=O)N2CCC[C@@H]2C(=O)N(Cc2ccccc2)CC(=O)N[C@@H](Cc2ccccc2)C(=O)N2CCC[C@@H]2C(=O)N(C)[C@H](C)C(=O)N(C)[C@@H](CC(C)C)C(=O)N1C,-6.20
CC(C)C[C@@H]1C(=O)N(Cc2ccccc2)CC(=O)N2CCC[C@H]2C(=O)N(C)[C@H](CC(C)C)C(=O)N[C@@H](Cc2ccccc2)C(=O)N2CCC[C@@H]2C(=O)N(C)[C@H](C)C(=O)N1C,-5.66
CC(C)C[C@@H]1C(=O)N(Cc2ccccc2)CC(=O)N2CCC[C@@H]2C(=O)N(C)[C@@H](CC(C)C)C(=O)N[C@@H](Cc2ccccc2)C(=O)N2CCC[C@H]2C(=O)N[C@@H](Cc2ccccc2)CC(=O)N1C,-5.58